scFv variants of Ab-14 (light chain) against a SARS-CoV-2 spike peptide

From the AlphaSeq antibody data of Li et al. 2023 (doi:10.1038/s41467-023-39022-2), copy in the FLAb collection.

All variants were tested on one target, the spike HR2 peptide PDVDLGDISGINAS (SARS-CoV-2).

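Phage display of a naive human antibody library on the peptide gave the parent. This is the validation round: designs drawn from the data on random variants, tested in the same kind of assay. Their group label is 14L_Ctrl (Ctrl: baseline library sampled from a position-specific scoring matrix, with some repeated check sequences). The assay is AlphaSeq: two haploid yeast populations carry antibody and antigen on their surface. The frequency of each diploid, read from paired DNA barcodes, reflects how well the two displayed proteins bind. Each replicate has its own calibration line, from reference interactions of the BCL2 family. Mating was done six times.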

The variants keep the heavy chain, the linker and the frameworks of Ab-14 (scFv order VH, a 15-residue (Gly4Ser)3 linker, VL).
VH: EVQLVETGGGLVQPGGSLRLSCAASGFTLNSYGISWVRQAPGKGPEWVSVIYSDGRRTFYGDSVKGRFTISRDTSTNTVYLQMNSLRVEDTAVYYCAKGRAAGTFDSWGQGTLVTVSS
VL: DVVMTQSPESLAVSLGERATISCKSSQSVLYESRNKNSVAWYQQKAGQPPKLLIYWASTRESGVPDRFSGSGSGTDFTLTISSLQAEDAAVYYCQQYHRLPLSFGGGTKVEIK

The whole VL of each variant is written out. The read-out is the apparent dissociation constant on a log10 scale (nM): the lower, the stronger. Replicates are averaged; those with no signal do not enter the mean. Where no diploid with the target was found in that replicate, the entry reads "nd": below detection, most likely a poor binder, though not proof of it. Values of this round are not directly comparable with the first-round values of the same sequences. Background: pairings of all light chain designs with three empty control strains gave a value in 4% of cases (median 2.64, 5th percentile 1.59). Values in that range, when seen in few replicates, are hard to tell from nonspecific mating. Also given: how often the same scFv was detected with the empty control strains, with their mean in brackets. The authors' rule: three or more of the six replicates give a measured affinity, fewer mean a poor binder. The parent sequence was in this pool as ten entries: three were never detected, three once, and four in most replicates, with averages from 0.34 to 2.37.

VL | log10 Kd, replicates | mean log10 Kd (nM) | signal with controls
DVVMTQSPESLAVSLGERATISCKSSYSVLYESRNKNSVAWYQQKAGQPPKLLIYWASTRESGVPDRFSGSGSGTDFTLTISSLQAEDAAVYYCQQYHRLPLSFGGGTKVEIK | nd / nd / 2.88 / nd / 2.53 / 2.75 | 2.72 | 0 of 18
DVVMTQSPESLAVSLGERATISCKSSQSVLYESRMKNSVAWYQQKAGQPPKLLIYWASKRESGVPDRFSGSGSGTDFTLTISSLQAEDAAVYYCQQYHRWPLSFGGGTKVEIK | nd / nd / nd / nd / nd / nd | nd | 0 of 18
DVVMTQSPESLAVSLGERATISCKLSQLMLYGSRNKNSVAWYQQKAGQPPKLLIYWASTRESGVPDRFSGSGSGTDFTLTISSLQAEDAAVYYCQQYSRLPLSFGGGTKVEIK | 0.31 / -0.01 / 0.09 / 0.02 / 0.12 / 0.30 | 0.14 | 0 of 18
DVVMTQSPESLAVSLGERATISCKSEQSVLYESSNKNSVAWYQQKAGQPPKLLIYWASTRESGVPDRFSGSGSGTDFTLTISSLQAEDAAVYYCQQYHRLPLNFGGGTKVEIK | 2.17 / 2.83 / 3.61 / 2.12 / 2.39 / 3.08 | 2.70 | 1 of 18 (3.03)
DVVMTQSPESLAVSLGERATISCKSSQSVLSESRNKNSVAWYQQKAGQPPKLLIYWASTRESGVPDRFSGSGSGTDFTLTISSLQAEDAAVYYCQQCHRLPLSFGGGTKVEIK | nd / 2.40 / nd / 3.13 / nd / 3.77 | 3.10 | 0 of 18
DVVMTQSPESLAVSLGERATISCKSSQSVLYESQNKNSVAWYQQKAGQPPKLLIYWASTRRSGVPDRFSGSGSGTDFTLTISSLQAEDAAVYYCQQYHRLPLSFGGGTKVEIK | nd / nd / nd / nd / nd / nd | nd | 0 of 18
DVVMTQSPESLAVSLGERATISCKSSQSVLYESTNKNSVAWYQQKAGQPPKLLIYQASTREEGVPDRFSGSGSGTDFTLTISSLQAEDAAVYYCSQYHRLPLHFGGGTKVEIK | 0.89 / 0.44 / 1.49 / 1.08 / 0.75 / 1.69 | 1.06 | 0 of 18
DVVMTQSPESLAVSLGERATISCKSSQSVLQESRNKNSVAWYQQKAGQPPKLLIYMMSTRESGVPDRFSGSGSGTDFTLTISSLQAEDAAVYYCQQYHRLPLSFGGGTKVEIK | nd / nd / nd / nd / nd / nd | nd | 0 of 18
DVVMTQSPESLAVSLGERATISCKSDQSELQESRNQNSVAWYQQKAGQPPKLLIYWASTRESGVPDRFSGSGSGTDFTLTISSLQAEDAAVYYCQQKHRLPLSFGGGTKVEIK | nd / nd / nd / nd / nd / nd | nd | 0 of 18
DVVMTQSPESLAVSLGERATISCKSSQSVLYESRNKNSVAWYQQKAGQPPKLLIYDAHTRESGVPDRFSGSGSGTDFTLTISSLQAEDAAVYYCQQYHRLPLSFGGGTKVEIK | 0.63 / 0.34 / 0.50 / 0.23 / 0.48 / 0.76 | 0.49 | 0 of 18
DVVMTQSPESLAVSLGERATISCKSSQSVLAESREKNSVAWYQQKAGQPPKLLIYWASTRESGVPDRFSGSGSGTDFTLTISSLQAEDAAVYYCNQYHRLPLSFGGGTKVEIK | nd / nd / nd / nd / nd / nd | nd | 0 of 18
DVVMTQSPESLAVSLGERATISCKSSQSVLYEGADLNSVAWYQQKAGQPPKLLIYWASQRESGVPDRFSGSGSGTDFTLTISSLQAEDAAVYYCQQYHRLPLSFGGGTKVEIK | nd / 2.26 / nd / 2.23 / 2.52 / nd | 2.34 | 0 of 18
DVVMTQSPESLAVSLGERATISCKSSQSVLYESRNPNSVAWYQQKAGQPPKLLIYWASTREYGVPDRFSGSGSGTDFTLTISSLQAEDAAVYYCQQYHRLPESFGGGTKVEIK | nd / nd / nd / nd / nd / nd | nd | 0 of 18
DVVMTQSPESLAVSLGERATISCKMSQSVLMESRNKNSVAWYQQKAGQPPKLLIYGASTRESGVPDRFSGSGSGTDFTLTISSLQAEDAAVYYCQQYHRLPLSFGGGTKVEIK | -0.01 / -0.13 / -0.24 / -0.29 / -0.16 / -0.27 | -0.18 | 2 of 18 (3.10)
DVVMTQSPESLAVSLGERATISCKSSQSVLYESRNKNSLAWYQQKAGQPPKLLIYMASTRASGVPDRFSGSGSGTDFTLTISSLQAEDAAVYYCQQYHRLFLKFGGGTKVEIK | nd / nd / nd / nd / nd / nd | nd | 0 of 18

Extract of 2 entries:

{"VL": "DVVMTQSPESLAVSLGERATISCKSSQSVLYESRMKNSVAWYQQKAGQPPKLLIYWASKRESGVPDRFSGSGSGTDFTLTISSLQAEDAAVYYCQQYHRWPLSFGGGTKVEIK", "log10 Kd, replicates": "nd / nd / nd / nd / nd / nd", "mean log10 Kd (nM)": "nd", "signal with controls": "0 of 18"}
{"VL": "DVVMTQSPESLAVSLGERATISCKSSQSVLYESRNPNSVAWYQQKAGQPPKLLIYWASTREYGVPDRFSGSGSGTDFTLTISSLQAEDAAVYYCQQYHRLPESFGGGTKVEIK", "log10 Kd, replicates": "nd / nd / nd / nd / nd / nd", "mean log10 Kd (nM)": "nd", "signal with controls": "0 of 18"}